# Assay results taken from patent US20160089545A1, “METHODS AND APPARATUS FOR DELIVERY OF MOLECULES ACROSS LAYERS OF TISSUE” (EP Technologies LLC, priority 2013, published 2016).
# Assay: Depth of permeation of fluorescently tagged molecules in plasma-treated porcine skin (plasmaporation)
# Type: in vitro ADME
# Procedure: A number of experiments were conducted and the experimental results and procedures were based on plasma treatment of porcine skin to transport dextran molecules tagged with fluorescent dyes, or proteins tagged with fluorescent dyes or nanoparticles tagged with fluorescent dyes through layers of the skin.
# Porcine skin with intact stratum corneum (SC) from back of the ear and abdomen were used, which included both full thickness (non-fleshed) and split thickness (fleshed) skin. The skin was kept at −80° C. until the day of treatment. On the day of treatment the skin was thawed to room temperature and kept in a humidified box for 1 hour. Prior to plasma application the hair was removed with a hair clipper and the skin was shaved. The skin was washed with soap and pat-dried with paper towels. The skin from back of the ear was cut in to 1″×1″ pieces and the skin from the abdomen was cut in to 2″×2″ pieces. The pieces of skin were kept in a humidified box on wet paper towels to maintain constant humidity.
# Lysine fixable fluorescently tagged dextran molecules having molecular weights of 3, 10, 40 and 70 kDa were also used. […]
# After treatment, 5-10 mm punch biopsies were obtained from control samples and plasma treated samples. […] Morphological analysis and depth of permeation analysis was carried out on an EVOS inverted fluorescence enabled microscope (AMG Microscope). […]
substance,measurement,value
albumin: albumin (66 kDa) tagged with green fluorescence,depth up to which predominately localized in the epidermis,75-100 μm
